Assay results as given in ChEMBL document CHEMBL1130165, “Butitaxel analogues: synthesis and structure-activity relationships” (J Med Chem, 1997).

By UniProt entry, the sequences of proteins in these tests, tags left out.
UniProt Q9H4B7, whole entry: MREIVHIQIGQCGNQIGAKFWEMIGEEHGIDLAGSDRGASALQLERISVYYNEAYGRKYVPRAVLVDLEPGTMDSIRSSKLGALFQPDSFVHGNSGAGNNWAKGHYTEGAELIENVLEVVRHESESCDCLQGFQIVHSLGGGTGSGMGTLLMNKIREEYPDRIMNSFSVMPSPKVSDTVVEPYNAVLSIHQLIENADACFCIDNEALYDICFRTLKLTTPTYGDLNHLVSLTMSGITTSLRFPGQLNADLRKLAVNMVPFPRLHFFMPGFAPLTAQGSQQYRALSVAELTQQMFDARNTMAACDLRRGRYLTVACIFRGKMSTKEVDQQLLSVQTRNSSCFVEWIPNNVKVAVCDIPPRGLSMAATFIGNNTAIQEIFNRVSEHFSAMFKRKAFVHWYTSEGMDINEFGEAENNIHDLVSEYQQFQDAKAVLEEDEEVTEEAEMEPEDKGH

Test system: B16
Test: Ratio of ED50 of compound to that of ED50 of paclitaxel; ED50 expressed as concentration which produces 50% inhibition of proliferation of B16 melanoma cells after 40h incubation
Assay type: functional, Mus musculus
In short: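 B16 melanoma cells were incubated with compound for 40 h. ED50 is the concentration giving 50% inhibition of proliferation. Each value is expressed as a ratio to the paclitaxel ED50.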

Question: With `CC(=O)O[C@@]12COC1C[C@H](O)[C@@]1(C)C(=O)[C@H](O)C3=C(C)[C@@H](OC(=O)[C@H](O)[C@@H](NC(=O)/C=C/c4cccs4)C(C)(C)C)C[C@@](O)([C@@H](OC(=O)c4ccccc4)[C@@H]12)C3(C)C` (stereo not given in full) as the molecule, how does the ED50 ratio read?
Answer: 2.7

Target: Tubulin beta-1 chain (Homo sapiens) (UniProt Q9H4B7)
Test: Ratio of ED50 of compound to that of ED50 of paclitaxel; ED50 expressed as concentration which causes polymerization of 50% of the tubulin in microtubule assembly assay (in vitro)
Assay type: functional
In short: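 In vitro microtubule assembly assay. […] Each compound's ED50 is expressed as a ratio to the paclitaxel ED50.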

Question: For `CC(=O)O[C@@]12COC1C[C@H](O)[C@@]1(C)C(=O)[C@H](O)C3=C(C)[C@@H](OC(=O)[C@H](O)[C@@H](NC(=O)OC(C)C)C(C)(C)C)C[C@@](O)([C@@H](OC(=O)c4ccccc4)[C@@H]12)C3(C)C` (stereo not given in full), which ED50 ratio is on record?
Answer: 0.84

Question: For `CCOC(=O)N[C@H]([C@@H](O)C(=O)O[C@H]1C[C@@]2(O)[C@@H](OC(=O)c3ccccc3)[C@H]3[C@](C)(C(=O)[C@H](O)C(=C1C)C2(C)C)[C@@H](O)CC1OC[C@]13OC(C)=O)C(C)(C)C` (stereo not given in full), which ED50 ratio is on record?
Answer: 1.4

Question: For `CC(=O)O[C@@]12COC1C[C@H](O)[C@@]1(C)C(=O)[C@H](O)C3=C(C)[C@@H](OC(=O)[C@H](O)[C@@H](NC(=O)c4ccco4)C(C)(C)C)C[C@@](O)([C@@H](OC(=O)c4ccccc4)[C@@H]12)C3(C)C` (stereo not given in full), which ED50 ratio is on record?
Answer: 1.5

Question: For `CC(=O)O[C@@]12COC1C[C@H](O)[C@@]1(C)C(=O)[C@H](O)C3=C(C)[C@@H](OC(=O)[C@H](O)[C@@H](NC(=O)c4cccn4C)C(C)(C)C)C[C@@](O)([C@@H](OC(=O)c4ccccc4)[C@@H]12)C3(C)C` (stereo not given in full), which ED50 ratio is on record?
Answer: 0.96

Question: Which ED50 ratio does the source give for `CC(=O)O[C@@]12COC1C[C@H](O)[C@@]1(C)C(=O)[C@H](O)C3=C(C)[C@@H](OC(=O)[C@H](O)[C@@H](NC(=O)c4ccsc4)C(C)(C)C)C[C@@](O)([C@@H](OC(=O)c4ccccc4)[C@@H]12)C3(C)C` (stereo not given in full) here?
Answer: 0.85

Question: Which ED50 ratio does the source give for `CC(=O)O[C@@]12COC1C[C@H](O)[C@@]1(C)C(=O)[C@H](O)C3=C(C)[C@@H](OC(=O)[C@H](O)[C@@H](NC(=O)c4ccc(C)s4)C(C)(C)C)C[C@@](O)([C@@H](OC(=O)c4ccccc4)[C@@H]12)C3(C)C` (stereo not given in full) here?
Answer: 2.4

Question: For `CC(=O)O[C@@]12COC1C[C@H](O)[C@@]1(C)C(=O)[C@H](O)C3=C(C)[C@@H](OC(=O)[C@H](O)[C@@H](NC(=O)C4CCCCC4)C(C)(C)C)C[C@@](O)([C@@H](OC(=O)c4ccccc4)[C@@H]12)C3(C)C` (stereo not given in full), which ED50 ratio is on record?
Answer: 1.5

Question: Which ED50 ratio does the source give for `CCCCOC(=O)N[C@H]([C@@H](O)C(=O)O[C@H]1C[C@@]2(O)[C@@H](OC(=O)c3ccccc3)[C@@H]3[C@]4(OC(C)=O)COC4C[C@](C)(O)[C@@]3(C)C(=O)[C@H](O)C(=C1C)C2(C)C)C(C)(C)C` (stereo not given in full) here?
Answer: 0.86

Test system: not listed separately
Test: Ratio of solubility to that of paclitaxel solubility
Assay type: ADME

Question: With `CC(=O)O[C@@]12COC1C[C@H](O)[C@@]1(C)C(=O)[C@H](O)C3=C(C)[C@@H](OC(=O)[C@H](O)[C@@H](NC(=O)/C=C/c4cccs4)C(C)(C)C)C[C@@](O)([C@@H](OC(=O)c4ccccc4)[C@@H]12)C3(C)C` (stereo not given in full) as the molecule, how does the Ratio read?
Answer: 3
